Values quoted from earlier work in patent publication US7658916B2, “Methods of enhancing lysosomal storage disease therapy by modulation of cell surface receptor density” (Genzyme Corporation, priority 2002, dated 2010).
Where two headings read alike, the source gives them in different places.

Tested on: asialoglycoprotein receptors (ASGPR)
Details: cited from earlier work

## interleukin-2: cytokine that can down-regulate asialoglycoprotein receptors
After 3-6 hour treatment
  inhibition of binding and uptake of asialoglycoproteins: 50%
After 24 hour treatment
  inhibition of binding and uptake of asialoglycoproteins: ~100%
